Data reported in US7192932B1, “Use of immunomodulating agents” (Lauras AS, priority 1997, dated 2007).

System: peripheral blood CD3+ T cells
Experiment: TCR/CD3 (anti-CD3) stimulated T cell proliferation, [3H]-thymidine incorporation
Format: cell-based, human
Conditions: CVI patients and controls
Protocol: Human peripheral blood CD3+ T cells were purified by negative selection from 50 ml of heparin-treated blood from normal healthy donors (Ullevaal University Hospital Blood Center, Oslo. Norway) or patients. Briefly, peripheral blood mononuclear cells were isolated by density gradient (Lymphoprep, NycoMed, Oslo, Norway) centrifugation followed by negative selection using monodisperse magnetic beads directly coated with antibodies to CD14 and CD19 and rat anti-mouse IgG beads coated with antibodies to CD56 and a magnet. […]
Proliferation assays were performed by incubation of 0.75×10^6 CM+ T cells/ml in a 100 μl volume in that-bottom 96-well microtiter plates. […] Proliferation was analyzed by incubating, cells for 72 hours during which [^3H]thymidine was included for the last 16 hours. Cells were washed and harvested onto filters using a Scatron harvester (Suffolk, UK) and subsequently analyzed by β-scintillation counting. cAMP analogs, when used, were added 30 min prior to activation by addition of […] antibodies. 8-CPT-cAMP was from Sigorna (St. Louis, Mo.) and Sp- and Rp-8-Br-cAMPS were from BioLog Life Science Company (Bremen, Germany) and were all dissolved to concentrations of 4 to 10 mM in PBS and concentrations calculated using the extinction coefficients given by the manufacturer.

IL-2: exogenously added IL-2 (2 Units/ng)
Effect of exogenously added IL-2 on anti-CD3 stimulated proliferation: marked increase
Effect of exogenously added IL-2 on anti-CD3 stimulated proliferation (IL-2 ˜0.15 ng/mL): no significant effect
